Test results: article PMC11939996 (Biomolecules, 2025)

How the values were obtained:
[1] = target: monomeric Aβ40; assay: Bio-layer interferometry, analyte binding to immobilized monomeric Aβ40; design: species or system human
Description: (§1) Next, 96-well microplates with analyte solutions were kept at 25 °C and shaken at 1000 rpm. The Aβ samples were pretreated with neat TFA, followed by dissolution in DMSO as described in ref. [61, 66]. […] The rest of the activated amine groups on the sensor were blocked by 1 M ethanolamine solution. […] The sensor surface was regenerated by the passage of 0.5% SDS water solution for 30 s.
(§2) The direct interaction of S100 proteins with monomeric Aβ was studied by biolayer interferometry in the buffer conditions mimicking the physiological conditions (20 mM Tris-HCl, 140 mM NaCl, 4.9 mM KCl, 2.5 mM CaCl2, 1 mM MgCl2, pH 7.4).
(§3) Since the S100 proteins are predominantly dimeric, their BLI sensograms were described within the bivalent analyte model (1), taking into account that the dimer concentration is half of the monomer concentration.

[2] = system: mature Aβ fibrils; assay: ThT fluorescence of mature Aβ fibrils; format: biochemical, human; settings: HSA 5 μM, fibrils 20 µM monomer equivalent, pH 7.4, 2.5 mM CaCl2
Description: The human Aβ40 samples were pretreated as described in ref. [61] with some modifications. Aβ40 sample was dissolved in 5 mM NaOH at pH 11.8 (0.5 mg/mL) and then rocked gently for 72 h at 4 °C. ThT fluorescence emission was measured mainly as described in ref. [61]. […] The ThT fluorescence intensity (λem = 485 nm, λexc = 440 nm) was recorded every 30 min for 266 h using a BioTek Synergy H1 multimode microplate reader (Agilent Technologies, Inc., Santa Clara, CA, USA) with orbital shaking prior to each measurement. Each measurement was performed in 3–4 repetitions. The control kinetic curves (for the wells without Aβ40) were subtracted from the corresponding kinetic curves of the experimental samples. The control kinetic curves are shown in the Supplementary Materials (Figure S4). Data are presented as the mean ± standard deviation. […] The corresponding kinetic curves are given in the Supplementary Materials (Figures S7 and S8).

[3] = system: monomeric Aβ42; assay: Bio-layer interferometry, analyte binding to immobilized monomeric Aβ42; design: species or system human; settings: heterogeneous ligand model, HSA 30–50 µM, 25 °C, pH 7.4, mean ± SD
Description: as §1, §2, §3

[4] = system: 3xTg mouse model; settings: cited from earlier work
Excerpt: (§4) In addition to Aβ isoforms, senile plaques contain metal ions (Cu, Fe, Zn) and dozens of proteins, including immunoglobulins, components of the complement system, and proteins involved in metabolism, molecular transport, blood coagulation/hemostasis, cell adhesion, the extracellular matrix, etc.. […] The latter fa ...

[5] = system: Aβ; settings: monomeric and multimeric Aβ; cited from earlier work
Excerpt: as §4

[6] = system: patients with mild-to-moderate AD; settings: plasma exchange with replacement of endogenous albumin; cited from earlier work
Excerpt: as §4

Kd ([1]; heterogeneous ligand model, site 1, printed number is KD1 multiplied by 10^6, HSA 30–50 µM, 25 °C, pH 7.4, 2.5 mM CaCl2, mean ± SD, n = 3–4, read-out: KD1 × 10^6) | ka1 × 10^−2 ([1]; heterogeneous ligand model, site 1, printed number is ka1 multiplied by 10^−2, HSA 30–50 µM, 25 °C, pH 7.4, mean ± SD) | kd1 × 10^4 ([1]; heterogeneous ligand model, site 1, printed number is kd1 multiplied by 10^4, HSA 30–50 µM, 25 °C, pH 7.4, mean ± SD) | Kd ([1]; heterogeneous ligand model, site 2, printed number is KD2 multiplied by 10^6, HSA 30–50 µM, 25 °C, pH 7.4, mean ± SD, read-out: KD2 × 10^6) | ka2 × 10^−2 ([1]; heterogeneous ligand model, site 2, printed number is ka2 multiplied by 10^−2, HSA 30–50 µM, 25 °C, pH 7.4, mean ± SD) | kd2 × 10^4 ([1]; heterogeneous ligand model, site 2, printed number is kd2 multiplied by 10^4, HSA 30–50 µM, 25 °C, pH 7.4, mean ± SD) | Kd ([1]; restated from Table 1 / Table 2 (HSA: highest-affinity site only), read-out: equilibrium dissociation constant used in Appendix A, Aβ40) | ka1 × 10^−2 ([3]; site 1, printed number is ka1 multiplied by 10^−2) | ka2 × 10^−2 ([3]; site 2, printed number is ka2 multiplied by 10^−2) | Substance | ThT signal of mature Aβ fibrils [2] | effect of intracerebroventricular infusion [4] | effect on Aβ binding and fibrillation [5] | cognitive and functional decline [6]
220 ± 120 nM | 7.9 ± 4.4 M^−1s^−1 | 1.72 ± 0.04 s^−1 | 6700 ± 4500 nM | 0.36 ± 0.24 M^−1s^−1 | 2.38 ± 0.06 s^−1 | 220 nM | 3.5 ± 0.5 M^−1s^−1 | 0.28 ± 0.18 M^−1s^−1 | HSA: Albumin, non-denatured human serum (cat.#126654), Merck | did not alter signi; also recorded: did not change significantly and remained stable | multifactorial beneficial effects, leading to improvement in cognitive tests | ability to bind monomeric and multimeric forms of Aβ and also prevents its fibrillation | 
 |  |  |  |  |  |  |  |  | therapeutic albumin: albumin replacing endogenous albumin in plasma exchange |  |  |  | slowed cognitive and functional decline

“Also recorded” adds a separate entry of the source. Where two headings read alike, the source gives them in different places.
